Results as given in publication PMC9378504 (Journal of medicinal chemistry, 2022).

Legend:
Type in all cases: cell-based, Human
[1] = test system: GSPT1; assay: Western blotting of GSPT1 protein level in KMS11 cells; details: 2.5 μM, 72 h
[2] = test system: GSPT1; assay: Western blotting of GSPT1 protein level in H929 cells; details: 2.5 μM, 72 h
[3] = test system: KMS11 cells; assay: Cell growth inhibition assay in KMS11 cells; details: 2.5 μM, 8 days
[4] = test system: H929 cells; assay: Cell growth inhibition assay in H929 cells; details: 2.5 μM, 8 days

`O=C1COc2cc(C(=O)N(Cc3ccc(C(=O)Nc4ccncn4)cc3)C3CC3)ccc2N1` [UNC6934, reference compound] was tested, and the GSPT1 degradation [1] was “did not display any degradation effect”, the GSPT1 degradation [2] was “did not display any degradation effect” and the Cell growth inhibition [3] was “showed little effect on cell growth inhibition”. The Cell growth inhibition [4] was “showed little effect on cell growth inhibition”.
